Earlier results on one substance are cited in patent US20150044136A1, “Ophthalmological treatment for michobial infections” (priority 2013, published 2015).

The conditions of the data set: forming a viscous solution; cited from earlier work.

In the case of pectin, the solubility in water was 20 parts of water.
